Amino acid sequences for entries named in this document (tags omitted).
UniProt Q13547, whole entry: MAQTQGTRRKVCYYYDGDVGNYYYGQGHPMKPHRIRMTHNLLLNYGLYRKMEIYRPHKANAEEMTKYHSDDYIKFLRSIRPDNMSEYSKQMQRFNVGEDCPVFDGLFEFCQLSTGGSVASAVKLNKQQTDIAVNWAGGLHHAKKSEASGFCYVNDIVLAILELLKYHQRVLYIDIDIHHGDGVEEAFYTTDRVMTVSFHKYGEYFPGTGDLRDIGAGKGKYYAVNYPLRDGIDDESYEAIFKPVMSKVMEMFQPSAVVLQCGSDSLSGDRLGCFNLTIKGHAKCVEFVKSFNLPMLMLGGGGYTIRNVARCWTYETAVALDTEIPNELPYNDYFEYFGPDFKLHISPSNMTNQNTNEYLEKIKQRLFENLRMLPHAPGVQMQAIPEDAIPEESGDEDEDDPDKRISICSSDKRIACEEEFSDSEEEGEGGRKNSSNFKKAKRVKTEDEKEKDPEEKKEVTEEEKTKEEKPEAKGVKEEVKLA

According to patent US7288567B2, “Inhibitors of histone deacetylase” (Methylgene Inc., priority 2000, dated 2007):

Molecular target: T1, recombinant human HDAC-1 enzyme (rHDAC-1) (Homo sapiens, UniProt Q13547)
T1 construct: made in house; host or cells: Baculovirus insect cell expression system
Assay: Histone deacetylase inhibition, recombinant human HDAC-1
Assay type: biochemical
Settings: cloned recombinant human HDAC-1, Baculovirus insect cell expression; read-out: rHDAC-1 IC50

Row | Structure (SMILES) | IC50 [µM]
1 | Nc1ccccc1NC(=O)CCCCCn1cnc2ccccc2c1=O [Compound 239a, N-(2-Aminophenyl)-6-[3-(4-oxo-4H-quinazolinyl)]hexanamide] | 11.6
2 | Nc1ccccc1NC(=O)CCCCCN1C(=O)c2cccc3cc(O)cc(c23)C1=O [Compound 251a, N-(2-Aminophenyl)-6-[2-(5-hydroxy-1,3-dioxo-1H,3H-benzo[de]isoquinolinyl)]hexanamide] | 0.7
